{
  "sequences": {"note": "Amino acid sequences for entries named in this document (tags omitted).", "UniProt Q96LB2, whole entry": "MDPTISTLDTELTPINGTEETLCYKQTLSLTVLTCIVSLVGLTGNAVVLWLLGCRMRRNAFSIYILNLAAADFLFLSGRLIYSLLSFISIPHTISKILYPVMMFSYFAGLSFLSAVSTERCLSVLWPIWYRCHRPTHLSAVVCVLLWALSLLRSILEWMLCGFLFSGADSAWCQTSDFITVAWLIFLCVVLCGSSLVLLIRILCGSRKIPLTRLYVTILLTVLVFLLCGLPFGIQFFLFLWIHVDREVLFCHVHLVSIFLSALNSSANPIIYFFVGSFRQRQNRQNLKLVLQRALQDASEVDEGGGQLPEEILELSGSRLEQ"},
  "source": "PubChem BioAssay AID588627",
  "about": "(Johns Hopkins Ion Channel Center, 2011)",
  "note": "The list shows a part of the results, in another mix than the full data. Active and inactive are the calls of the source.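 The calls were made as follows: active = calcium response B-score plate-corrected fluorescence ratio at least 3 library SD, with starting fluorescence B-score inside 5 SD; inactive = the rest.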",
  "data": [
    {"biological_target": "Mas-related G-protein coupled receptor member X1 (Homo sapiens) (UniProt Q96LB2)", "assay": "agonists of human MrgX1 receptor, primary screen, HEK293 cells, Fluo-4 calcium flux (AID 588627)", "details": "Fluo-4 calcium fluorescence, agonist mode, at 10 µM", "outline": "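Material: HEK293 cells stably expressing human MrgX1 receptor | Quantity: 15,000 cells per well | Times: Cells plated overnight, dye loaded 0.5 h 37 °C, 0.5 h room temperature | Measured by: Kinetic Fluo-4 NW fluorescence of intracellular calcium | Control set: Positive and negative controls per plate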", "values": [
      {"molecule": "CCN1CCC(Nc2cccc(F)c2)CC1", "outcome": "inactive"},
      {"molecule": "CN(C)c1ccc(C(=O)NCC2(N3CCCCC3)CCCCC2)cc1", "outcome": "inactive"},
      {"molecule": "COc1cc(OC)cc(C(=O)NCC2(N3CCCCC3)CCCCC2)c1", "outcome": "inactive"},
      {"molecule": "Cc1ccc(C(=O)NCC2(N3CCCCC3)CCCCC2)o1", "outcome": "inactive"},
      {"molecule": "Fc1ccccc1NC1CCN(Cc2ccccc2)CC1", "outcome": "inactive"},
      {"molecule": "CCC(CO)(C(=O)OC1CN2CCC1CC2)c1ccccc1", "note": "(centres undefined)", "outcome": "inactive"},
      {"molecule": "COc1cccc(C(=O)N(c2cc(C)cc(C)c2)C2CCN(C(=O)OC(C)(C)C)CC2)c1", "outcome": "inactive"},
      {"molecule": "COc1cc(OC)cc(C(=O)NCC2(N3CCOCC3)CCCCC2)c1", "outcome": "inactive"},
      {"molecule": "CCCOc1ccc(C)cc1CN(CCCl)CCCl", "outcome": "inactive"},
      {"molecule": "CN1CCC(Nc2ccc(Cl)cc2)CC1", "outcome": "inactive"},
      {"molecule": "CCOc1ncccc1C(=O)NCC1(N2CCOCC2)CCCCC1", "outcome": "inactive"},
      {"molecule": "CN1CCC(Nc2ccc(F)c(Cl)c2)CC1", "outcome": "inactive"},
      {"molecule": "CCCOc1ccc(C(=O)NCC2(N(C)C)CCCCC2)cc1", "outcome": "inactive"},
      {"molecule": "CC(C)(C)OC(=O)N1CCC(Nc2ccccc2)CC1", "outcome": "inactive"},
      {"molecule": "O=C(O)C1(Nc2ccccc2)CCN(Cc2ccccc2)CC1", "outcome": "inactive"},
      {"molecule": "N/C(=N\\O)c1c(N)no[n+]1[O-]", "outcome": "inactive"},
      {"molecule": "CCOC(=O)N1CCC(Nc2ccc(C)cc2)CC1", "outcome": "inactive"},
      {"molecule": "O=C(OC1CN2CCC1CC2)C1c2ccccc2C=Cc2ccccc21", "note": "(centres undefined)", "outcome": "inactive"},
      {"molecule": "CCc1cc(C(=O)NCC2(N3CCCCC3)CCCCC2)sc1C", "outcome": "inactive"},
      {"molecule": "COc1ccc(C(=O)NCC2(N3CCOCC3)CCCCC2)cc1OC", "outcome": "inactive"},
      {"molecule": "c1ccc(CN2CCC(Nc3ccccc3)CC2)cc1", "outcome": "inactive"},
      {"molecule": "CCCN1CCC(Nc2cc(OC)cc(OC)c2)CC1", "outcome": "inactive"},
      {"molecule": "CN(C)C1(CNC(=O)c2cccc(C#N)c2)CCCCC1", "outcome": "inactive"},
      {"molecule": "CC(C)(C)OC(=O)N1CCC(N(C(=O)c2ccccc2)c2ccc(Cl)cc2)CC1", "outcome": "inactive"},
      {"molecule": "N#Cc1ccc(C(=O)NCC2(N3CCCCC3)CCCCC2)cc1", "outcome": "inactive"},
      {"molecule": "O=C(NCC1(N2CCCCC2)CCCCC1)c1cccc(C(F)(F)F)c1", "outcome": "inactive"},
      {"molecule": "COc1ccc(NC2CCN(C(=O)OC(C)(C)C)CC2)cc1", "outcome": "inactive"},
      {"molecule": "CN1CCN(CCOC(=O)C(O)(c2ccccc2)c2ccccc2)CC1", "outcome": "inactive"},
      {"molecule": "O=C(NCC1(N2CCOCC2)CCCCC1)c1cc(=O)[nH]c2ccccc12", "outcome": "inactive"},
      {"molecule": "COc1cc(C(=O)NCC2(N3CCCCC3)CCCCC2)ccc1OC(F)F", "outcome": "inactive"},
      {"molecule": "O=C(NCC1(N2CCCCC2)CCCCC1)c1ccc(OC(F)F)cc1", "outcome": "inactive"},
      {"molecule": "O=C(NCC1(N2CCCCC2)CCCCC1)c1cccc([N+](=O)[O-])c1", "outcome": "inactive"},
      {"molecule": "CCN1CCC(Nc2ccc(Cl)cc2)CC1", "outcome": "inactive"},
      {"molecule": "N#CC1(Nc2ccccc2)CCN(CCc2ccccc2)CC1", "outcome": "inactive"}
    ]}
  ]
}
